Measured values: patent US20070037785A1, “Novel dipeptidyl peptidase IV inhibitors used for functionally influencing different cells and treating immunological, infammatory, neuronal, and other diseases” (priority 2003, published 2007)

Protein sequences, listed by entry. Tags and fused reporters are not part of them.
UniProt P27487, whole entry, species assumed: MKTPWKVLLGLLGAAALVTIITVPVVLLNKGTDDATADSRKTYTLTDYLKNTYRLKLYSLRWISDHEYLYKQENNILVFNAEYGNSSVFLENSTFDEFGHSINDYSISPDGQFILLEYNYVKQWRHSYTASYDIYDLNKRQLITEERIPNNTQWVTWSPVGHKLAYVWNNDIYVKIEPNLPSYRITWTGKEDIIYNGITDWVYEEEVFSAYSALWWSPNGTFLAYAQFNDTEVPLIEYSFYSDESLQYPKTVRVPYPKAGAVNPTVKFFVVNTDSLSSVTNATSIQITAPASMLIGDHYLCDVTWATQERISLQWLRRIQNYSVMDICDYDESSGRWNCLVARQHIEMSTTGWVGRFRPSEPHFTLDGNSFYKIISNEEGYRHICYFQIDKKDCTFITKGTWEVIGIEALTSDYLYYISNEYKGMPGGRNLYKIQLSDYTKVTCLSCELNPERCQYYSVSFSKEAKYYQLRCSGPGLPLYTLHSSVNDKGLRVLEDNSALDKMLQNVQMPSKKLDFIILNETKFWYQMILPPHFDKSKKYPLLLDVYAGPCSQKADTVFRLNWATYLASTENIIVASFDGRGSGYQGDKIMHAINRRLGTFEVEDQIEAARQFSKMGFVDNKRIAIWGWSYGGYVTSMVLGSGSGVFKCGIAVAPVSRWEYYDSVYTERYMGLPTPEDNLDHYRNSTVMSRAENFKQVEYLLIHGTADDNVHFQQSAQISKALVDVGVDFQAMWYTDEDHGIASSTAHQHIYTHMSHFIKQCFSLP

Molecular target: dipeptidyl peptidase IV (Homo sapiens, UniProt P27487)
Experiment: biochemical
Details: IC50DPIV

CC(=O)CCc1oc2ccc([N+](=O)[O-])cc2c1-c1ccc(C)o1 [D3.031]
IC50: 25.4 µM
